In patent publication US4481203A, “Composition containing 1-(n-hexylcarbamoyl)-5-fluorouracil and uracil” (priority 1977, dated 1984):

How the values were obtained:
sarcoma 180 [1] = test: Therapeutic index (LD50/ED50) in mice (Table 5); assay type: in vivo, male mice of ICR strain; details: oral
Excerpt: The LD50 and ED50 values obtained above are used to determine the therapeutic index (LD50 /ED50).

sarcoma 180 [2] = test: Therapeutic effect on sarcoma 180 transplanted in mice (Table 5); assay type: in vivo, male mice of ICR strain; details: oral, uracil (b)/(a) mol ratio 0, as amount of 5-fluorouracil (a), 14400 min
Method: (5) The anti-cancer compositions of this invention are tested in mice by the following methods to determine acute toxicity, therapeutic effect and theapeutic index.
Tissues of sarcoma 180, 2×10^6, are subcutaneously transplanted in the back of male mice of ICR strain (6 mice in each group). A 5-fluorouracil (a) and uracil (b) in the proportions listed in Table 5 are suspended in a 5% solution of gum arabic to prepare a suspension. Twenty-four hours after the transplantation and during the following seven consecutive days the suspension is orally given to the animal once every day. On the 10th day after the transplantation, the tumor is removed from the body and weighed to calculate the average weight (T) of the tumors in the group to which the composition has been given and the corresponding weight (C) in the control group to determine the ratio T/C. The effective dose (ED50) for achieving 50% cancer inhibition is determined from the dose-response curve involving the dose and effect (T/C).

Compound	Therapeutic index (LD50/ED50) (sarcoma 180 [1]; uracil (b)/(a) mol ratio 0)	Therapeutic index (LD50/ED50) (sarcoma 180 [1]; uracil (b)/(a) mol ratio 2.5)	ED50 (sarcoma 180 [2]) [mg/kg]
O=c1[nH]cc(F)c(=O)[nH]1 [Compound 1, 5-Fluorouracil]	6.2	13.5	–
CCOCn1cc(F)c(=O)[nH]c1=O [Compound 5, 1-Ethoxymethyl-5-fluorouracil]	8.9	17.2	112
O=c1[nH]c(=O)n(S(=O)(=O)c2ccccc2)cc1F [Compound 8, 1-Benzenesulfonyl-5-fluorouracil]	–	11.1	–
